{
  "source": "PubChem BioAssay (NCI)",
  "assay": "NCI Yeast Anticancer Drug Screen. Data for the sgs1 strain (AID 173);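 also: 0% = growth of vehicle-only control cultures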",
  "conditions": "S. cerevisiae sgs1 mutant, hits give high values",
  "description": "Growth inhibition of yeast strains with defined genetic alterations is measured as a screen for potential anti-cancer activity. Selected strains with alterations in DNA damage repair or cell cycle control were exposed to compounds and growth inhibition was measured relative to vehicle treated controls. The strain used in this assay is sgs1",
  "note": "Only a part is listed here, and it is no random draw. The source holds several records for some structures; these can differ, active in one and inactive in another. Active and inactive are the calls of the source. Rule as the data show it: active = growth inhibition above about 70%; inactive = the rest.",
  "data": [
    {"compound": "O=[N+]([O-])c1cc([N+](=O)[O-])c2nsnc2c1", "values": [
      {"measurement": "growth inhibition", "setting": "at 1.2 µM", "value": "inactive: 28%"},
      {"measurement": "growth inhibition", "setting": "at 3.7 µM", "value": "inactive: 41%"},
      {"measurement": "growth inhibition", "setting": "at 11.0 µM", "value": "active: 99%"},
      {"measurement": "growth inhibition", "setting": "at 33.0 µM", "value": "active: 99%"},
      {"measurement": "growth inhibition", "setting": "at 100.0 µM", "value": "active: 99%"}
    ]},
    {"compound": "N#Cc1cc([N+](=O)[O-])cc([N+](=O)[O-])c1N", "values": [
      {"measurement": "growth inhibition", "setting": "at 1.2 µM", "value": "inactive: 7%"},
      {"measurement": "growth inhibition", "setting": "at 3.7 µM", "value": "inactive: 10%"},
      {"measurement": "growth inhibition", "setting": "at 11.0 µM", "value": "inactive: 16%"},
      {"measurement": "growth inhibition", "setting": "at 33.0 µM", "value": "inactive: 30%"},
      {"measurement": "growth inhibition", "setting": "at 100.0 µM", "value": "inactive: 46%"}
    ]},
    {"compound": "CN(C)P(=O)(N(C)C)n1c(Nc2ccccc2)nnc1-c1ccccc1", "values": [
      {"measurement": "growth inhibition", "setting": "at 1.2 µM", "value": "inactive: -56%"},
      {"measurement": "growth inhibition", "setting": "at 3.7 µM", "value": "inactive: -38%"},
      {"measurement": "growth inhibition", "setting": "at 11.0 µM", "value": "inactive: -17%"},
      {"measurement": "growth inhibition", "setting": "at 33.0 µM", "value": "active: 91%"},
      {"measurement": "growth inhibition", "setting": "at 100.0 µM", "value": "inactive: -48%"}
    ]},
    {"compound": "O=C1OC(C(Cl)(Cl)Cl)Sc2ccccc21", "note": "(stereo not given)", "values": [
      {"measurement": "growth inhibition", "setting": "at 1.2 µM", "value": "inactive: -1%"},
      {"measurement": "growth inhibition", "setting": "at 3.7 µM", "value": "inactive: 3%"},
      {"measurement": "growth inhibition", "setting": "at 11.0 µM", "value": "inactive: 10%"},
      {"measurement": "growth inhibition", "setting": "at 33.0 µM", "value": "inactive: 40%"},
      {"measurement": "growth inhibition", "setting": "at 100.0 µM", "value": "active: 73%"}
    ]},
    {"compound": "FC1(F)SC2C(C1(F)F)C1(Cl)C(Cl)=C(Cl)C2(Cl)C1(Cl)Cl", "note": "(stereo not given)", "values": [
      {"measurement": "growth inhibition", "setting": "at 1.2 µM", "value": "inactive: 49%"},
      {"measurement": "growth inhibition", "setting": "at 3.7 µM", "value": "active: 99%"},
      {"measurement": "growth inhibition", "setting": "at 11.0 µM", "value": "active: 99%"},
      {"measurement": "growth inhibition", "setting": "at 33.0 µM", "value": "active: 99%"},
      {"measurement": "growth inhibition", "setting": "at 100.0 µM", "value": "active: 98%"}
    ]},
    {"compound": "COc1cccc(C[N+](C)(CCCl)CCCl)c1[N+](=O)[O-]", "values": [
      {"measurement": "growth inhibition", "setting": "at 1.2 µM", "value": "inactive: 21%"},
      {"measurement": "growth inhibition", "setting": "at 3.7 µM", "value": "inactive: 23%"},
      {"measurement": "growth inhibition", "setting": "at 11.0 µM", "value": "inactive: 33%"},
      {"measurement": "growth inhibition", "setting": "at 33.0 µM", "value": "inactive: 51%"},
      {"measurement": "growth inhibition", "setting": "at 100.0 µM", "value": "active: 74%"}
    ]},
    {"compound": "NC(Cc1cnc[nH]1)C(=O)O", "note": "(stereo not given)", "values": [
      {"measurement": "growth inhibition", "setting": "at 1.2 µM", "value": "inactive: -3%"},
      {"measurement": "growth inhibition", "setting": "at 3.7 µM", "value": "inactive: 27%"},
      {"measurement": "growth inhibition", "setting": "at 11.0 µM", "value": "active: 96%"},
      {"measurement": "growth inhibition", "setting": "at 33.0 µM", "value": "active: 98%"},
      {"measurement": "growth inhibition", "setting": "at 100.0 µM", "value": "active: 99%"}
    ]},
    {"compound": "CC(C)c1nc(Nc2ccccc2)n(P(=O)(N(C)C)N(C)C)n1", "values": [
      {"measurement": "growth inhibition", "setting": "at 1.2 µM", "value": "inactive: -1%"},
      {"measurement": "growth inhibition", "setting": "at 3.7 µM", "value": "inactive: 0%"},
      {"measurement": "growth inhibition", "setting": "at 11.0 µM", "value": "inactive: 12%"},
      {"measurement": "growth inhibition", "setting": "at 33.0 µM", "value": "inactive: 59%"},
      {"measurement": "growth inhibition", "setting": "at 100.0 µM", "value": "active: 93%"}
    ]}
  ]
}
